Biological target: T1, Interstitial collagenase (Homo sapiens, UniProt P03956)
T1 sequence (P03956 whole entry): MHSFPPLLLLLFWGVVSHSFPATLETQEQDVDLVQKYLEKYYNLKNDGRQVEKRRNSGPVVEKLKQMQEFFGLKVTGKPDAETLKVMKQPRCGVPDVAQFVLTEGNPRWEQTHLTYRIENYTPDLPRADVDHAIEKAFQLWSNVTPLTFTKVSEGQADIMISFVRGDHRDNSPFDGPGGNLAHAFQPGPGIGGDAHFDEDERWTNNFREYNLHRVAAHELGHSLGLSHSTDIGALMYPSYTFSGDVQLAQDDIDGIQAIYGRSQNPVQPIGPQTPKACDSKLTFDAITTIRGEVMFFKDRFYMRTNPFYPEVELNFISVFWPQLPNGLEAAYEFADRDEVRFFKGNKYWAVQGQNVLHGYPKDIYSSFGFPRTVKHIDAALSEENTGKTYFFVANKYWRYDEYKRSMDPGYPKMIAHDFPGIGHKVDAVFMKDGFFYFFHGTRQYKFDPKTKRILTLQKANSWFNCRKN
Test: Evaluated for inhibitory activity against Human fibroblast collagenase (HFC)

For `CNC(=O)[C@H](Cc1ccc(OC)cc1)NC(=O)[C@@H](CC(=O)NO)CC(C)C`, which Ki is on record?
The Ki was 6 nM.
